Target: T1, Tyrosine-protein phosphatase non-receptor type 1 (Homo sapiens, UniProt P18031)
T1 sequence (P18031 whole entry): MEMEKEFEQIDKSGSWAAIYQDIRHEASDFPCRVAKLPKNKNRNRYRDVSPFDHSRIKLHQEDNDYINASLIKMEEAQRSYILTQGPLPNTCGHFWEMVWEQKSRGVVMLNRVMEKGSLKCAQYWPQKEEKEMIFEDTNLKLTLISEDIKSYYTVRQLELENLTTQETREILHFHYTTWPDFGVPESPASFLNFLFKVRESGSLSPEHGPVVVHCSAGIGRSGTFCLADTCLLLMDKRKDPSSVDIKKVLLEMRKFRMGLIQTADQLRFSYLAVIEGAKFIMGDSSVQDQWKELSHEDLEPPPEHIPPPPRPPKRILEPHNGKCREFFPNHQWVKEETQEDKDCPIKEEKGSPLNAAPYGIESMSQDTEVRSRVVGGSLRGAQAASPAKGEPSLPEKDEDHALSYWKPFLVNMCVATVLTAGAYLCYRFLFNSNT
Assay: Inhibitory activity against Protein tyrosine phosphatase 1B (PTP1B) over-expressed in intact Sf9 cell assay

O=P(O)(O)c1cccc(-c2ccc(CC(Cc3ccc(C(F)(F)P(=O)(O)O)cc3)(c3ccccc3)n3nnc4ccccc43)cc2)c1 (stereo unspecified)
IC50: 240 nM

Reference: ChEMBL document CHEMBL1146670, “Structure based design of a series of potent and selective non peptidic PTP-1B inhibitors” (Bioorg Med Chem Lett, 2004)
